Target: PI3Kγ (Homo sapiens, UniProt P48736)
Experiment: PI3K isoform ELISA kit, PI3Kγ
Type: biochemical

Sequences of proteins named here, by UniProt entry; tags and fusion partners are left off. A change or cut given only in a name is not applied to a line headed by its entry.
UniProt P48736: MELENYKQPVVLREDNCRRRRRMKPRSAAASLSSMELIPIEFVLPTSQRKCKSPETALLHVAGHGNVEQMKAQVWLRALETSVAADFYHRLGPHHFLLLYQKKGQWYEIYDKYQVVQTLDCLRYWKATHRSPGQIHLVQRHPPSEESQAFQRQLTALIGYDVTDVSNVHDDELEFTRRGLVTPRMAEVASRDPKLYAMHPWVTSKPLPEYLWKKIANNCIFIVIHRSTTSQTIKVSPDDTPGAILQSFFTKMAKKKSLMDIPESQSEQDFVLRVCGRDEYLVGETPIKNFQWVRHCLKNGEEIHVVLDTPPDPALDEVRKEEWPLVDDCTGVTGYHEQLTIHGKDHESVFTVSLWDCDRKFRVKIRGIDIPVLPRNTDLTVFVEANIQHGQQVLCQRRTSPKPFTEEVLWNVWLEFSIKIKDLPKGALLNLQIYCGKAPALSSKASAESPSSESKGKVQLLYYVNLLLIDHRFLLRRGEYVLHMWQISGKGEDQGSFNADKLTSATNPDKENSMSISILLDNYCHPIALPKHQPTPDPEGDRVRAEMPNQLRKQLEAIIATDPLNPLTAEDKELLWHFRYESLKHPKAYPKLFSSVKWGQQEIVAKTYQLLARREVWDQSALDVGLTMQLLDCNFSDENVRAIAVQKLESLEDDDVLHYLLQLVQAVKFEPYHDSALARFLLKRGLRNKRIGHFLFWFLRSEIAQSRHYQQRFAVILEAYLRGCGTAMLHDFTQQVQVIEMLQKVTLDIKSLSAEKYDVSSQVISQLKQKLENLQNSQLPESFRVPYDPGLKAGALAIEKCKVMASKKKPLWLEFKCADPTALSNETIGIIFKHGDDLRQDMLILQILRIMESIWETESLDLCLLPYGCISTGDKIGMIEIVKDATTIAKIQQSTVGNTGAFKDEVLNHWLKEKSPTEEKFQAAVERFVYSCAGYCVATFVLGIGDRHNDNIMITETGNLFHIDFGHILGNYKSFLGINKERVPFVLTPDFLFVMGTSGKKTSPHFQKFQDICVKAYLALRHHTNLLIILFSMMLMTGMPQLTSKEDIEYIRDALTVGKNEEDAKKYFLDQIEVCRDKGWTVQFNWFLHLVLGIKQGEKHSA

Compound: O=c1cc(N2CCOCC2)oc2c(-c3ccccc3)cccc12 [LY294002, reference compound]
- IC50: 6.76 ± 0.55 µM

From PMC10866054 (Journal of Enzyme Inhibition and Medicinal Chemistry, 2024)
